Amino acid sequences for entries named in this document (tags omitted).
UniProt Q9UQD0, whole entry: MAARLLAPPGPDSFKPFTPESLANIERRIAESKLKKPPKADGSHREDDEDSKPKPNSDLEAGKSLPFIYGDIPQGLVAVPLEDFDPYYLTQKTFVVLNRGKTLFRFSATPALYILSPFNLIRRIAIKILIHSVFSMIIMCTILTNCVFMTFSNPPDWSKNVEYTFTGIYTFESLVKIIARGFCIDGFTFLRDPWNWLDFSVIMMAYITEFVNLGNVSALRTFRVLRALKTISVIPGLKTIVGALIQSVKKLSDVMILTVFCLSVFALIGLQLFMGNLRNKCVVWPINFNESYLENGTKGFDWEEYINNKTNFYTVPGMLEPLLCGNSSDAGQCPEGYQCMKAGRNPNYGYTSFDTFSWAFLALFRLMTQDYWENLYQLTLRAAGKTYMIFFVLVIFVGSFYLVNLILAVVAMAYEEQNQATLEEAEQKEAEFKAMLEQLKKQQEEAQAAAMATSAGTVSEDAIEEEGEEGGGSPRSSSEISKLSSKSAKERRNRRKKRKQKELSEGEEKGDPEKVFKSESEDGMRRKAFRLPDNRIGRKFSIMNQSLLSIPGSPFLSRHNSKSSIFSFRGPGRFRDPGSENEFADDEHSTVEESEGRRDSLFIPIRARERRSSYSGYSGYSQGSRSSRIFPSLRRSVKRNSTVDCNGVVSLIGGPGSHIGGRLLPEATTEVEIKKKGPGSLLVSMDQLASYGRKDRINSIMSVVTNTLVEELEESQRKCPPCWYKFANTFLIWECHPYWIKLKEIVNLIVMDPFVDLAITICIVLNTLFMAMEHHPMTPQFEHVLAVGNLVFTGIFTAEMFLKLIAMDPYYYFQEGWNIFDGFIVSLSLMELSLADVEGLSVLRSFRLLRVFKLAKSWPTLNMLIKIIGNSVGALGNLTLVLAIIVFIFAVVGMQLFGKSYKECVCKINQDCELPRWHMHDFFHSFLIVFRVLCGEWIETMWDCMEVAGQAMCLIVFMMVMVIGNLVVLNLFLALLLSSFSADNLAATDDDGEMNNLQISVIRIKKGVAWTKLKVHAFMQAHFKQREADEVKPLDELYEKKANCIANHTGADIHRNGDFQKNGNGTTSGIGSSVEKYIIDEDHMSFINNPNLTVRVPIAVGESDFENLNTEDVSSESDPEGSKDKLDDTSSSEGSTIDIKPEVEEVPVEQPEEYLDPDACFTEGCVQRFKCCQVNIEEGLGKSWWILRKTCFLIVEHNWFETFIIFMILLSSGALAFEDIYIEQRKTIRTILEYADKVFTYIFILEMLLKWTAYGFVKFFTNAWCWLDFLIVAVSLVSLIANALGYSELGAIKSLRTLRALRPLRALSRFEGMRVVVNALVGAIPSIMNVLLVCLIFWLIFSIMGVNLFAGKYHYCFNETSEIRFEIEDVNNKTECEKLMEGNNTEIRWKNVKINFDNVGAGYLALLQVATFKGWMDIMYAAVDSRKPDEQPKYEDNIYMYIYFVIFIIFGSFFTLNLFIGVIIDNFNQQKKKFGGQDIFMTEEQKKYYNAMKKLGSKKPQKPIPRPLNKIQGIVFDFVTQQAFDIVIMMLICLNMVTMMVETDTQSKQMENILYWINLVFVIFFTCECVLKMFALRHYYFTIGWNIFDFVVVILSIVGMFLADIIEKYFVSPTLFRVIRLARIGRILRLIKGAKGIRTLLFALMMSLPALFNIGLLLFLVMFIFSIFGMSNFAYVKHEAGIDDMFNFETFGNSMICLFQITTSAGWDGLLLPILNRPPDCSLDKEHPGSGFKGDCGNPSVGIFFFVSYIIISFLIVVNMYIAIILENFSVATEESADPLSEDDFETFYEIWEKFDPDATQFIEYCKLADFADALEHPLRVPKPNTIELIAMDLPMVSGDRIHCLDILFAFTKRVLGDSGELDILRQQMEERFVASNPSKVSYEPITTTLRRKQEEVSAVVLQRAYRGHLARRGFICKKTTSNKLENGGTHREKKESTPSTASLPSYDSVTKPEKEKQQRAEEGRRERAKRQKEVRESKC
UniProt Q15858, whole entry: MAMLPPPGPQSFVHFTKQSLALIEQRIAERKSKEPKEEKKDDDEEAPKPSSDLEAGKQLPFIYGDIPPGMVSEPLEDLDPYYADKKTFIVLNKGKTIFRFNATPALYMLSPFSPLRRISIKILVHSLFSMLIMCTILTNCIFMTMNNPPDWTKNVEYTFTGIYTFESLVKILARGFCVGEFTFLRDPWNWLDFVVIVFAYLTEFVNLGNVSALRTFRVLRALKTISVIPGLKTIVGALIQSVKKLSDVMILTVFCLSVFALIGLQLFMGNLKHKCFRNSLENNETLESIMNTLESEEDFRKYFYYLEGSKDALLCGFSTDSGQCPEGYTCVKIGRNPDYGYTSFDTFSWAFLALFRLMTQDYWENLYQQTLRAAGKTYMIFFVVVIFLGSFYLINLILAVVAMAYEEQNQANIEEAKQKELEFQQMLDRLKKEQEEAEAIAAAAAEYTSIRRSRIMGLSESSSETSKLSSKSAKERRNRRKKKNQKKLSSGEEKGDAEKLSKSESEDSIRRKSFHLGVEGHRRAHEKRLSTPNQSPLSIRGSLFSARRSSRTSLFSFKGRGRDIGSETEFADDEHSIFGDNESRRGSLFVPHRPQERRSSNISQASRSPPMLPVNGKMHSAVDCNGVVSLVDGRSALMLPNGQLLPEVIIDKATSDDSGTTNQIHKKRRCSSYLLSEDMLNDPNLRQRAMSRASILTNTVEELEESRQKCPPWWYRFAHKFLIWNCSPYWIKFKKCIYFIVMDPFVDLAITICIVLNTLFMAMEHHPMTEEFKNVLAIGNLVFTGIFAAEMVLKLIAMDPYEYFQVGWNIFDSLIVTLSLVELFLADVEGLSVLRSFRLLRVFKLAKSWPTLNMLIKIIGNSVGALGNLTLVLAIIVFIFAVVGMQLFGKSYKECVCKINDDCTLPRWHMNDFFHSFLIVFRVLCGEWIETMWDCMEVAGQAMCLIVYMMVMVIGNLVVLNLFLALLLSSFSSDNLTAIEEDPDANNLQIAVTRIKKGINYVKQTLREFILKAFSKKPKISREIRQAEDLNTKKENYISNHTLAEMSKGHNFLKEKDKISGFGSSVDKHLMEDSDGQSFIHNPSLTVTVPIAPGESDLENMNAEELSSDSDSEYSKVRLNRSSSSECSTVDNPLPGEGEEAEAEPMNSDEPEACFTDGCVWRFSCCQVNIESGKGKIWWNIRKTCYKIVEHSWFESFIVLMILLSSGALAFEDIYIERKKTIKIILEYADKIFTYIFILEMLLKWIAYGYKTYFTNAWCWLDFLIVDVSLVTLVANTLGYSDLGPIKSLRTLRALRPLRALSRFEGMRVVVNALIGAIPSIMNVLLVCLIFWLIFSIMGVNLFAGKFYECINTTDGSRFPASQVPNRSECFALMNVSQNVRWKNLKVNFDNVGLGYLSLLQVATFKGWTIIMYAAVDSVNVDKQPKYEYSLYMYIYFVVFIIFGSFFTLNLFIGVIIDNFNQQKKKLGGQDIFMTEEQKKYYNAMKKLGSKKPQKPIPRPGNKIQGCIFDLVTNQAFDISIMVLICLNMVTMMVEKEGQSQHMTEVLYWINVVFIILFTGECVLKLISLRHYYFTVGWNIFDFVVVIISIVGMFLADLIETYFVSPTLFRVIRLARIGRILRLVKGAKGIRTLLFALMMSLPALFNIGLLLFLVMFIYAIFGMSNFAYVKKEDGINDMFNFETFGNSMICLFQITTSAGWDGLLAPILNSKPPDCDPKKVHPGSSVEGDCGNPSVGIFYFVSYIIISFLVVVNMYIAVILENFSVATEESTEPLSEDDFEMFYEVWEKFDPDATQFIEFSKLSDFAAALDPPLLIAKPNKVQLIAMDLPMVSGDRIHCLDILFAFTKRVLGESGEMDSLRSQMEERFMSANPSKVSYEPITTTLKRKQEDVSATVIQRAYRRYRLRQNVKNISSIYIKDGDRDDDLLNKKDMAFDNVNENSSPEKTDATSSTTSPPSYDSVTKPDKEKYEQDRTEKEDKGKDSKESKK
UniProt Q14524, whole entry: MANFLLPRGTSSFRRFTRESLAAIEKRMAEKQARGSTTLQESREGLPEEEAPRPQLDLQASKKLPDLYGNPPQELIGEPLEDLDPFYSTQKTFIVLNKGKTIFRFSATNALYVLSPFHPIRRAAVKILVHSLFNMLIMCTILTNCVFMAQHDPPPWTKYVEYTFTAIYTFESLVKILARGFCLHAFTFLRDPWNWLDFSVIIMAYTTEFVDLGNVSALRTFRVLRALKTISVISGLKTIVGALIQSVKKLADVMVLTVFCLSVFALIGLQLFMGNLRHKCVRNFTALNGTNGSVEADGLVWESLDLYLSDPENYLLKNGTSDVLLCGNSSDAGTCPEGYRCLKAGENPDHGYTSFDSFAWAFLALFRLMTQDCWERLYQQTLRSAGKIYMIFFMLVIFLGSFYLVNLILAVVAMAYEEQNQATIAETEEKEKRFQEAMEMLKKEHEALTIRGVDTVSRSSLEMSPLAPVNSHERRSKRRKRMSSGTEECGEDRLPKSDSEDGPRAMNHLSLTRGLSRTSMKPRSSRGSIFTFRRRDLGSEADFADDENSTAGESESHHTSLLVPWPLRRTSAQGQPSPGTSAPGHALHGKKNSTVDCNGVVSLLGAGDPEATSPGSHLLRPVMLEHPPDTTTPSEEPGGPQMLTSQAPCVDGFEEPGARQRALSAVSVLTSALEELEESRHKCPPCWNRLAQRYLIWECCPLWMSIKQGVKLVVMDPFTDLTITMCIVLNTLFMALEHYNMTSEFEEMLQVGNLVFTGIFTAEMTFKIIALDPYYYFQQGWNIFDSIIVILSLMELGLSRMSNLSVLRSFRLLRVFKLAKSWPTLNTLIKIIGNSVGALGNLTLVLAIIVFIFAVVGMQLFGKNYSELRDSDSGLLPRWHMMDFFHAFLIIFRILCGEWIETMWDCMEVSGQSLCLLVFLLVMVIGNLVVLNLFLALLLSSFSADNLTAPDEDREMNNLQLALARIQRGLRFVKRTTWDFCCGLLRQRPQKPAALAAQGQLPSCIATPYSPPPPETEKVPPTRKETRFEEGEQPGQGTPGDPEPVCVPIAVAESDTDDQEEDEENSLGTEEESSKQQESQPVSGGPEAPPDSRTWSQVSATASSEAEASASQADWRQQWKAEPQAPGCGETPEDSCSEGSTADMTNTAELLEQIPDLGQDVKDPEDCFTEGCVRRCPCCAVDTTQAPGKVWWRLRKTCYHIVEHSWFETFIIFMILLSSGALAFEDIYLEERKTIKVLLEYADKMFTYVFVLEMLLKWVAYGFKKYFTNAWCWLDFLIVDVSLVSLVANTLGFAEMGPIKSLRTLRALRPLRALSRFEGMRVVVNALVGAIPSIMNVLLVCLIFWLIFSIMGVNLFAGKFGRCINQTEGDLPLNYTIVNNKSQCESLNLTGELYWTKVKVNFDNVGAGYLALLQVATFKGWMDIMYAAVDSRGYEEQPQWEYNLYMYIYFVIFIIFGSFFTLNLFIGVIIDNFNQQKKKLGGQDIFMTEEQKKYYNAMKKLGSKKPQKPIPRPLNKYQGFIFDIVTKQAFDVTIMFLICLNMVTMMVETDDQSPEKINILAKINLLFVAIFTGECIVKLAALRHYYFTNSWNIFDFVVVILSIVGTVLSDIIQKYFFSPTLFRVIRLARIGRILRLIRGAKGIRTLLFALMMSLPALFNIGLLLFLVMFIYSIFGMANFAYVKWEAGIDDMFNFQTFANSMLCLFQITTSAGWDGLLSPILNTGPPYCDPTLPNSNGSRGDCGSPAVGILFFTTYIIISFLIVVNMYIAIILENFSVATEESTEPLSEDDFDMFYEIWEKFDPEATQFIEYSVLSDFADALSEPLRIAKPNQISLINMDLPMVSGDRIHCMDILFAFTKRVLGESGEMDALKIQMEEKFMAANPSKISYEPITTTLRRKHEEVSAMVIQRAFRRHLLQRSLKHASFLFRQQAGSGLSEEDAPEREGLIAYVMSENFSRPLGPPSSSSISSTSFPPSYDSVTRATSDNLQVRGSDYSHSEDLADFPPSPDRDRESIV

In patent US12246008B2, “4-amino or 4-alkoxy-substituted aryl sulfonamide compounds with selective activity in voltage-gated sodium channels” (Merck Sharp & Dohme LLC, priority 2018, dated 2025):

Columns and labels:
Experiment in all cases: Qube automated patch-clamp assay, inhibition of sodium current
[1] = target: human Nav1.6 channels stably expressed in HEK 293 cells (Homo sapiens, UniProt Q9UQD0); details: read-out: NaV1.6 (nM); −65 mV; holding potential −65 mV; max concentration tested 33750 nM
Protocol: (§1) Qube™ Experimental Procedure:
(§2) Compounds were tested on human Nav1.7 and Nav1.6 channels stably expressed in HEK 293 cells. Sodium current measurements on the Qube: An automated patch-clamp assay on the Qube platform (Sophion Bioscience) was used to measure inhibition of human Nav1.7 and 1.6 channels. Cells were sealed on a planar substrate using the multihole technology. Cells expressing human Nav1.7 channels were held at −75 mV or −80 mV. Cells expressing human Nav1.6 channels were held at −65 mV. A train of 6 consecutive test pulses to −10 mV, preceded by 8 s prepulses to −115 mV, was applied at a frequency of 0.1 Hz before and after compound addition. Cells in each Qchip well were incubated in compound for 5 minutes before measuring inhibition. Peak currents were measured in control conditions and after compound addition. The following recording solutions were used (mM). External Nav1.6: 150 NaCl, 2 CaCl2), 5 KCl, 1 Mg Cl2, 10 HEPES, 12 Dextrose; external Nav1.7: 40 NaCl, 120 NMDG, 1 KCl, 0.5 MgCl2, 5 HEPES, 2.7 CaCl2); internal: 120 CsF, 30 CsCl, 10 EGTA, 5 HEPES, 5 NaF, 2 MgCl2. Compounds were prepared as 10 mM stock solutions in DMSO. 10 point compound titrations were generated using the Echo acoustic liquid handling instrument and glass coated 384 well plates. The final DMSO concentration in the assay was 0.3%. […] IC50 values were determined by fitting to the Hill equation. […]

[2] = target: human Nav1.7 channels stably expressed in HEK 293 cells (Homo sapiens, UniProt Q15858); details: read-out: NaV1.7 (nM); −80 mV; holding potential −80 mV; max concentration tested 33750 nM
Protocol: as §1, §2

NaV1.5 = NaV1.5 (Homo sapiens, UniProt Q14524); details: read-out: Nav1.5 (nM); −80 mV; holding potential −80 mV; max concentration tested 33750 nM
Protocol: as §2

## C[C@@H](N)[C@H](CNc1ccc(S(=O)(=O)Nc2ncns2)cc1Cl)CC1(CCN)CCC1
[1]
  IC50: 10400 nM
[2]
  IC50: 27 nM
NaV1.5
  IC50: > 33800 nM
